Measured values as given in patent US9296716B2, “Androgen receptor ligands” (THE PROVOST, FELLOWS, FOUNDATION SCHOLARS, & THE OTHER …, priority 2011, dated 2016).

Protein sequences, listed by entry. Tags and fused reporters are not part of them. Residues count along the entry.
UniProt P10275, 669-900 limits assumed: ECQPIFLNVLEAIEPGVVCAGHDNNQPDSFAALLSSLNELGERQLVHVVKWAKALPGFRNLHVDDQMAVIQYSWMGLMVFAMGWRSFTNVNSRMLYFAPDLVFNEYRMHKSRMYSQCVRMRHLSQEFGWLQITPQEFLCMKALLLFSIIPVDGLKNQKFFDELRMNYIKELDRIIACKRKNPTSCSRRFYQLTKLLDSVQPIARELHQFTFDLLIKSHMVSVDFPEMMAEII
UniProt P10275, 669-900 T878A: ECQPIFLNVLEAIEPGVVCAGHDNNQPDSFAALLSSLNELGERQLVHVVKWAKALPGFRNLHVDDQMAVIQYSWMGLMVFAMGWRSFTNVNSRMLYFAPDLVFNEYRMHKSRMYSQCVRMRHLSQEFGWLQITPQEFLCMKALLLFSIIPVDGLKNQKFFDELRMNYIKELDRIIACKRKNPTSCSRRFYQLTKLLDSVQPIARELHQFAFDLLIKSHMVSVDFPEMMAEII

Experiments:
[1] = target: AR-LBD wt (Homo sapiens, UniProt P10275); assay: Lanthascreen TR-FRET AR coactivator (D11-FxxLF) assay, AR-LBD wt; format: biochemical
[2] = target: T1, AR-LBD T877A mutant (Homo sapiens, UniProt P10275, T878A); assay: TR-FRET coactivator assay, AR T877A mutant; format: biochemical
T1 construct: purchased Invitrogen PV4667

Row | Structure (SMILES) | IC50 [1] | IC50 ([1]; read-out: Activity (AR wt TR-FRET)) | IC50 [2]
1 | COc1cc(/C=N/NC(=O)c2cc3c(ccc4ccccc43)o2)cc(I)c1O [MDG15] | 43.2 µM | – | –
2 | O=C(N/N=C/c1cccc(O)c1O)c1cc2ccccc2cc1O [MDG173] | 40.8 ± 2.5 µM | – | –
3 | CCCOc1ccc(/C=N/NC(=O)c2cc3c(ccc4ccccc43)o2)cc1 [MDG508] | – | 17.9 ± 6.9 µM | 28.1 ± 6.7 µM

Where two headings read alike, the source gives them in different places.
